This note sets out measurements from publication PMC12751014, “Non-Catalytic Inhibitors of the p38/MK2 Interface: Repurposing Approved Drugs to Target Neuroinflammation in Alzheimer’s Disease” (Journal of Medicinal Chemistry, 2025).

Sequences of proteins named here, by UniProt entry; tags and fusion partners are left off.
UniProt Q16539, whole entry: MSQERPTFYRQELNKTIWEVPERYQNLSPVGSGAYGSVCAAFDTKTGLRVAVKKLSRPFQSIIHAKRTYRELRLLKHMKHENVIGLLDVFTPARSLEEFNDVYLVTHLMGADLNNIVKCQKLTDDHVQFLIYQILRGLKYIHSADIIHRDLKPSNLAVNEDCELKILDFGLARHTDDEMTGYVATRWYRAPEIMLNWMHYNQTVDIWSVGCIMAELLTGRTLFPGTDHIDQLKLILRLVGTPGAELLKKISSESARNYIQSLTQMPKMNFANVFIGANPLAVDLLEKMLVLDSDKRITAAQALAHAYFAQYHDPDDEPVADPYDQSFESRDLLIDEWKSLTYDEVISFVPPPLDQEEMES

This is a selection: effects in other tests are not listed, and their absence says nothing.

This test has as its target p38/MK2 interaction (Homo sapiens, UniProt Q16539). Description: TR-FRET ultra-high-throughput screening (uHTS), 1536-well, HEK293T lysate VF-p38α / GST-MK2. It is filed as binding.

“disodium;iron(4+);nitroxyl anion;pentacyanide”: the “620 nm Fold over Control” value (fluorescence interference readout) is 0.42. Besides, the Pct of control (uHTS TR-FRET signal, Emory Enriched Library) is listed as 7.21 Pct of control.
